The test system of the test is OPRD1 counterscreen cells, luminescence, activation. Briefly: OPRD1 cell luminescence activation counter-screen – dose response, counter-screen for OPRM1-OPRD1 heterodimer activator project, late-stage follow-up (AID 651686). In general terms: Counterscreens check selectivity or assay interference.

Broadly, the EC50 is the concentration that produces a half-maximal response.

SMILES strings stand for the structures. Active and inactive are the calls of the source. The rule behind the calls is not given here. Some results are limits rather than exact numbers.

As to `CCOc1ccc(CN2CCC(Nc3cccc4ccccc34)CC2)cc1C#N`, the EC50 was inactive: > 40 µM.

The record behind these values is PubChem BioAssay AID651686 (The Scripps Research Institute Molecular Screening Center, 2012).
